The experiment addresses human CTPS1 (Homo sapiens, UniProt P17812). The experiment can be described thus: Human CTPS1 enzyme inhibition (ADP-Glo Max assay). The conditions noted are these: read-out: CTPS1 (Human CTPS1 Enzyme Inhibition data grouped by potency range), Table 17, 25° C.

The chains behind the UniProt entries cited, without tags or fusion partners.
UniProt P17812, whole entry: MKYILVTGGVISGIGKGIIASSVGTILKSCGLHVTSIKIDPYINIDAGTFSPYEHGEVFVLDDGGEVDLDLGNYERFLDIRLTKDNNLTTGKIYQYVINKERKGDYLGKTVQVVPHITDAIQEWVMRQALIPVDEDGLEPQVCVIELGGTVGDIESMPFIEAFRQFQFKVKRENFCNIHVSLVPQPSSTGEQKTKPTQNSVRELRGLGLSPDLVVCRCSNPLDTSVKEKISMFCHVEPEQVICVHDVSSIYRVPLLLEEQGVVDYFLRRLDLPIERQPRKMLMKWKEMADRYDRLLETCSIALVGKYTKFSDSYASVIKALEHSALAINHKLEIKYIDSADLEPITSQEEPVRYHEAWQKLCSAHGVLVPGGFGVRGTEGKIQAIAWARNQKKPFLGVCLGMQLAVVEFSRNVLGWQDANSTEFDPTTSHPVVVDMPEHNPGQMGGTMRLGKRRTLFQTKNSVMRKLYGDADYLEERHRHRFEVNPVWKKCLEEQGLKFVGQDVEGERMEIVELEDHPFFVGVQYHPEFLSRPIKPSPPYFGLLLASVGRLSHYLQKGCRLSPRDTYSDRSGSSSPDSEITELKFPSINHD

As to `CC(C)(C(=O)Nc1ccc(-c2cccnc2C(F)(F)F)cc1)c1csc(NS(=O)(=O)C2CC2)n1`, the IC50 lay within 1000 to 10000 nM.
The figure for `CCC(C(=O)Nc1ccc(-c2cccnc2)cn1)c1csc(NS(=O)(=O)C2CC2)n1` (centres unmarked) is 100 to 1000 nM.

(Values after patent US11655246B2, “Aminothiazole compounds as inhibitors of CTPS1” (STEP PHARMA S.A.S., priority 2017, dated 2023).)
